Experimental data reported in patent US8680091B2, “6-arylalkylamino-2,3,4,5-tetrahydro-1H-benzo[d]azepines as 5-HT2C receptor agonists” (Eli Lilly and Company, priority 2005, dated 2014).

Sequences of proteins named here, by UniProt entry; tags and fusion partners are left off.
UniProt P28223, whole entry: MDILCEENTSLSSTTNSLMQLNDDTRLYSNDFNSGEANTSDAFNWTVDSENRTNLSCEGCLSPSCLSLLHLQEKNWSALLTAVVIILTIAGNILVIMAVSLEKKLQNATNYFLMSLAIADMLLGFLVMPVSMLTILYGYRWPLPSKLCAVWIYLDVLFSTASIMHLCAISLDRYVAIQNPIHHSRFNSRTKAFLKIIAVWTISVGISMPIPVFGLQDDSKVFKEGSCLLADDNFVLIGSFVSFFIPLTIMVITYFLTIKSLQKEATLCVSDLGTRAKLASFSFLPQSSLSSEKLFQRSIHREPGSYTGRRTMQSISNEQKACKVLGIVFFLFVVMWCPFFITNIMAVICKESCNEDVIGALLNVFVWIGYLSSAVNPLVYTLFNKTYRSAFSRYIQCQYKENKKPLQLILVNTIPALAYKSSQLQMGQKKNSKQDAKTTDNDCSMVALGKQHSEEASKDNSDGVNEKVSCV
UniProt P41595, whole entry: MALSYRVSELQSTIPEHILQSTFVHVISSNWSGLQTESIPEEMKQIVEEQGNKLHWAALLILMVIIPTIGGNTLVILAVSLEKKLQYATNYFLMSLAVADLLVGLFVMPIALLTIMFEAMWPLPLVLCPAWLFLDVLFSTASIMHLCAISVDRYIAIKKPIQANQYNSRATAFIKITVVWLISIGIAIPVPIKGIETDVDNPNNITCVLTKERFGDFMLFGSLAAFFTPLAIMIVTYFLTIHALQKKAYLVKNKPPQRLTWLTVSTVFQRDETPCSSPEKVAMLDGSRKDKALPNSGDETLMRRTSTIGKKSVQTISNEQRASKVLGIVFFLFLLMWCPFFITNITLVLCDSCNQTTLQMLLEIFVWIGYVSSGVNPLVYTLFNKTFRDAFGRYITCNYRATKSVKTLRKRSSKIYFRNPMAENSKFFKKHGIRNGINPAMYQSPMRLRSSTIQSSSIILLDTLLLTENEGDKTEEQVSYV

What was measured:
human 5-HT2A receptor = human 5-HT2A receptor (Homo sapiens, UniProt P28223); details: normalized AUC at 5-HT2C / normalized AUC at 5-HT2A
human 5-HT2B receptor = human 5-HT2B receptor (Homo sapiens, UniProt P41595); details: normalized AUC at 5-HT2C / normalized AUC at 5-HT2B

Clc1cccc(N2CCNCC2)c1 [mCPP, meta-chlorophenylpiperazine]
AUC 2C/2A Selectivity Ratio (human 5-HT2A receptor): 2.1 | AUC 2C/2B Selectivity Ratio (human 5-HT2B receptor): 2.1
